## AlphaSeq binding of Ab-91 heavy chain variants to a spike HR2 peptide

The measurements come from Engelhart et al. 2022 (doi:10.1038/s41597-022-01779-4) through the FLAb antibody collection.

Binding partner: SARS-CoV-2 spike HR2 peptide, sequence PDVDLGDISGINAS.

Parent: Ab-91, a human scFv built as VL, a (GGGGS)3 linker, VH. Only the CDRs of the heavy chain vary.
VL: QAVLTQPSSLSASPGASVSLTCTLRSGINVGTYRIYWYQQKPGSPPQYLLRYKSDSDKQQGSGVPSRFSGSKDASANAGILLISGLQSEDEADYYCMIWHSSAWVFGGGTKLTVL
VH: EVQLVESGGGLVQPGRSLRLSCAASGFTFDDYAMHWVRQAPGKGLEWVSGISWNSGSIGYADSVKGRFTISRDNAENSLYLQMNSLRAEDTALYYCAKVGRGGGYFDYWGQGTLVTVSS

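The starting antibody came from a phage panning campaign against this peptide. In library AAYL51, one, two or three CDR residues were substituted; doubles and triples were drawn at random. AlphaSeq pools MATa yeast showing the antibodies with MATalpha yeast showing the peptide. Pairs that bind mate more often; barcode pairs of the diploids are counted by sequencing. The ratio of observed to expected reads was calibrated, replicate by replicate, on BCL2-family standards whose Kd was known from biolayer interferometry. The assay was run in three technical replicates.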

Positions count from residue 1 of the parent VH; G50W puts W in place of G. Values are apparent Kd, the geometric mean of the replicates that gave a signal; lower means stronger binding. "no signal" means that the variant was in the library but no mating with the target was seen in any replicate; the authors take this as a sign of poor binding, and no number exists. In this assay the parent's reference entry averaged 72 nM; its copy inside this library read 7.5 nM. Background: pairings of library AAYL51 with three empty control strains gave a value in 21% of cases (median 34 µM, 5th percentile 1.8 µM). Values in that range, when seen in few replicates, are hard to tell from nonspecific mating.

| # | changes | Kd | seen in |
|---|---|---|---|
| 1 | G50W K65W | 29 µM | 2/3 |
| 2 | I51S S52L Y60T | no signal | 0/3 |
| 3 | A61P G104H | 590 µM | 2/3 |
| 4 | G26Q G50M S57F | 210 nM | 1/3 |
| 5 | T28K F29P I51A | 56 µM | 3/3 |
| 6 | G100F G103S Y108Q | no signal | 0/3 |
| 7 | F27E G59K F106W | 25 µM | 2/3 |
| 8 | G102N Y105C D107K | 34 µM | 3/3 |
| 9 | S55Y I58F | no signal | 0/3 |
| 10 | Y32I S57M D62E | 48 µM | 3/3 |
| 11 | I58S F106G Y108H | 1.2 µM | 3/3 |
| 12 | T28F S57M V64S | no signal | 0/3 |
| 13 | Y60V G104D | 37 nM | 3/3 |
| 14 | Y60D S63G R101H | no signal | 0/3 |
| 15 | V99Y R101Y | 290 µM | 1/3 |
| 16 | F29G I51S D62C | no signal | 0/3 |
| 17 | G56C K65I | 24 nM | 3/3 |
| 18 | F29D H35L I58L | no signal | 0/3 |
| 19 | F29Q Y32R W53F | 110 µM | 3/3 |
| 20 | I51N G102S | 120 µM | 1/3 |
| 21 | D30A S52C R101T | 17 µM | 1/3 |
| 22 | S52H V99K Y105D | 110 µM | 1/3 |
| 23 | H35G G56R D62M | no signal | 0/3 |
| 24 | I51C F106D D107V | 1.4 mM | 1/3 |
| 25 | M34A S55F V99L | no signal | 0/3 |
| 26 | D31K M34N S57W | 320 µM | 2/3 |
| 27 | F29D G103Y | no signal | 0/3 |
| 28 | D30G D62H Y108T | 8.4 nM | 3/3 |
| 29 | D30R H35C D107F | 58 µM | 1/3 |
| 30 | G103W F106C Y108D | no signal | 0/3 |
| 31 | D30N S57A G59Y | no signal | 0/3 |
| 32 | F27Y N54P V64F | no signal | 0/3 |
| 33 | F27V Y32T Y105Q | 6.4 µM | 3/3 |
| 34 | D30Q D31E | no signal | 0/3 |
| 35 | K65G R101T G102L | no signal | 0/3 |
| 36 | G56T V64C G104E | 100 µM | 2/3 |
| 37 | T28Q D30Q V99K | no signal | 0/3 |
| 38 | I51S G56I A61V | no signal | 0/3 |
| 39 | G59Q D62G Y108L | 26 µM | 3/3 |
| 40 | Y60P A61N G103K | no signal | 0/3 |
| 41 | A33R G56S Y108L | 43 µM | 3/3 |
| 42 | D30N Y32C G102T | 18 µM | 1/3 |
| 43 | F29K D30L D31C | 61 µM | 1/3 |
| 44 | D62K K65E G104W | no signal | 0/3 |
| 45 | W53V R101G G102F | 54 nM | 3/3 |
| 46 | T28C V64T F106G | 160 µM | 3/3 |
| 47 | M34F W53Q G102Q | 7.3 µM | 1/3 |
| 48 | I58S V64N V99Q | 120 µM | 1/3 |
| 49 | D30G S63C V99A | 16 µM | 1/3 |
| 50 | I51H S63K F106C | 88 µM | 3/3 |
| 51 | Y32I I51K W53T | 3.2 µM | 1/3 |
| 52 | I51V W53R A61S | no signal | 0/3 |
| 53 | G56Q K65S G102K | no signal | 0/3 |
| 54 | D31V G102E | no signal | 0/3 |

Excerpt, the first 4 entries:

{"changes": "G50W K65W", "Kd": "29 µM", "seen in": "2/3"}
{"changes": "I51S S52L Y60T", "Kd": "no signal", "seen in": "0/3"}
{"changes": "A61P G104H", "Kd": "590 µM", "seen in": "2/3"}
{"changes": "G26Q G50M S57F", "Kd": "210 nM", "seen in": "1/3"}